Amino acid sequences for entries named in this document (tags omitted). Residues count along the entry.
UniProt Q05397, whole entry: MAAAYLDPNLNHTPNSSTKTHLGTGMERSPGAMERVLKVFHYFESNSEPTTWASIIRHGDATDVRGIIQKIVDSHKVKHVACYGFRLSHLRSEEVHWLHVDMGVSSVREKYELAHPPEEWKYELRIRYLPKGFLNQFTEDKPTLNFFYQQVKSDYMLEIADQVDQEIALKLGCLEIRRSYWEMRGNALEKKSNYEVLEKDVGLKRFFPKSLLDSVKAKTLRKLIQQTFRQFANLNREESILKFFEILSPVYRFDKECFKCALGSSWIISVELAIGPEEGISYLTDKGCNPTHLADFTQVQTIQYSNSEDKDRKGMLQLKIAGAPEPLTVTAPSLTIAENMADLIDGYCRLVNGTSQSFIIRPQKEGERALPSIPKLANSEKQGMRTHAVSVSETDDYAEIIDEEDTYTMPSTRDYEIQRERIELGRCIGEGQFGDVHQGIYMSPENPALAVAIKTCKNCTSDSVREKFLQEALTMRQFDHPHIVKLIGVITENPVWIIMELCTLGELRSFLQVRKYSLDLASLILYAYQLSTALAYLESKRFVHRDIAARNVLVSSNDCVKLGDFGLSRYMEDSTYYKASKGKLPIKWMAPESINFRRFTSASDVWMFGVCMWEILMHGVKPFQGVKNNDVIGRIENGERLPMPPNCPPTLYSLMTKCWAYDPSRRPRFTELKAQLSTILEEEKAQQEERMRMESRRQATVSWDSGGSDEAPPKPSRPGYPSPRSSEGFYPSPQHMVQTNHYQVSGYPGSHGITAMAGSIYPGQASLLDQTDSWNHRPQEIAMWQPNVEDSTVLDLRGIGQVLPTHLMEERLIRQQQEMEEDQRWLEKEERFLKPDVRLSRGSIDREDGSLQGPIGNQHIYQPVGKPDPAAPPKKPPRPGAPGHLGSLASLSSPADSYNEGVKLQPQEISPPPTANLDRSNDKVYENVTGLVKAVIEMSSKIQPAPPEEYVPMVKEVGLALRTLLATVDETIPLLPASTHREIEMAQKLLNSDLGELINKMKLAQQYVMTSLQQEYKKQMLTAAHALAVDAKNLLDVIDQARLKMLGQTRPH
UniProt Q05397, 422-680 limits assumed: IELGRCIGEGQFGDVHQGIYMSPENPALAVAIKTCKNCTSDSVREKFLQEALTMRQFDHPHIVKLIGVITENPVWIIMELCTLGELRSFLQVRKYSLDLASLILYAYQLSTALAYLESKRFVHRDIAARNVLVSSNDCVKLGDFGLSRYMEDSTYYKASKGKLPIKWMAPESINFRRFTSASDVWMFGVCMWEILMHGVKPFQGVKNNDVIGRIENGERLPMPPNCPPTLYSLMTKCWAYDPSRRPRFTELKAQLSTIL
UniProt Q14289, whole entry: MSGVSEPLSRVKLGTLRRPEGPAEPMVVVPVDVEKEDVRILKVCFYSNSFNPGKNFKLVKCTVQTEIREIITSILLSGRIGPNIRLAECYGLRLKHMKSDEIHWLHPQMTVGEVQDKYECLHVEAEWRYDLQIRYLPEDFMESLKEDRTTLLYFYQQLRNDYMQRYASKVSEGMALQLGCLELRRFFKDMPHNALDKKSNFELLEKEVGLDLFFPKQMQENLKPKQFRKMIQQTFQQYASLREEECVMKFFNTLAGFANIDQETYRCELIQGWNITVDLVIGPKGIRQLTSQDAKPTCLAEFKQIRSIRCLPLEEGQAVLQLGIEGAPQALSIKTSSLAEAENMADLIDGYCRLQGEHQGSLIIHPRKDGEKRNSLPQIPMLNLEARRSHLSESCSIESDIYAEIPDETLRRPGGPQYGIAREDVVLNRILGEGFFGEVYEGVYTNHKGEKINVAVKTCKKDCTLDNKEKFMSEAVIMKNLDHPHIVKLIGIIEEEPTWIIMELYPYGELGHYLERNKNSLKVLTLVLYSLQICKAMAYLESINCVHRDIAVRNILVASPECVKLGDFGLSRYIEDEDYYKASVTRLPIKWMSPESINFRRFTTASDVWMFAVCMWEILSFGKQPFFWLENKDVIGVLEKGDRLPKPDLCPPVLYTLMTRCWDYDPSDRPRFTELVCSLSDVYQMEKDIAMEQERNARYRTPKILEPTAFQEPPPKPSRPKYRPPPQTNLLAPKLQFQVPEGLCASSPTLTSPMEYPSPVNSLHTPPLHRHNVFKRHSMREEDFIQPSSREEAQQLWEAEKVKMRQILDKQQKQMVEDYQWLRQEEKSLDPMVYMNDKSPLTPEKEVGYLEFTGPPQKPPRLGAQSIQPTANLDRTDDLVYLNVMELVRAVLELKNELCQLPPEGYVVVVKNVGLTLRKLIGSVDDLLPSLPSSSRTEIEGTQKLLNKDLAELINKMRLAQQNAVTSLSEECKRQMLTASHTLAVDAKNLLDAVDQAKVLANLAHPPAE

In patent publication US20240024333A1, “USE OF SMALL MOLECULE FAK ACTIVATORS TO PROMOTE MUCOSAL HEALING” (Regents of the University of Minnesota, priority 2020, published 2024):

What was measured:
[1] = molecular target: T1, FAK (Homo sapiens, UniProt Q05397); assay: Cell-based FAK-Tyr-397 activation (Western blot, Caco-2 cells); conditions: for FAK activation / FAK-Tyr-397 phosphorylation (in words): vs. DMSO vehicle control
T1 construct: Suspended cells were then treated with DMSO (0.1%) or small molecules for 1 hour before harvesting for Western blotting; endogenous in cells; host or cells: Caco-2 (human, ATCC)

[2] = molecular target: T2, Pyk2 (Homo sapiens, UniProt Q14289); assay: Pyk2 activation in intact cells; format: cell-based
T2 construct: endogenous in cells; host or cells: Caco-2

[3] = molecular target: T3, Src (Homo sapiens, UniProt P12931); assay: Src activation in intact cells; format: cell-based
T3 construct: endogenous in cells; host or cells: Caco-2

[4] = tested on: ischemic ileal mucosal ulcers; assay: Ischemic ileal ulcer model (acetic-acid-soaked discs on serosa); design: species or system mice; conditions: in vivo
[5] = B/P ratio and blood-brain barrier crossing; format: in vivo; conditions: 2 h
[6] = tested on: mice; conditions: mouse, in vivo
[7] = molecular target: FAK 35 kD kinase domain (Homo sapiens, UniProt Q05397); assay: In vitro kinase assay with purified FAK kinase domain

| SMILES | EC50 [1] | concentration level of FAK activation (in words) [1] | concentration as low as which FAK is activated ([1]; Caco-2 cells) | FAK activation / FAK-Tyr-397 phosphorylation (in words) [1] | Selectivity against relative off-targets: no Pyk2 activation at multiple of FAK activation [2] | Selectivity against relative off-targets: no Src activation at multiple of FAK activation [3] | Mouse therapeutic dose [4] | B/P ratio [5] | Therapeutic Index [6] | Vmax of FAK kinase domain (in words) ([7]; ATP-ADP conversion / ATP-binding) | ATP to ADP conversion by / activation of FAK kinase domain (in words) ([7]; purified protein) |
| --- | --- | --- | --- | --- | --- | --- | --- | --- | --- | --- | --- |
| CN(C)C(CNC(=O)Nc1cc(C(F)(F)F)ccc1N1CCOCC1)c1ccncc1 (stereo not drawn) [Compound 40] | < 10 nM | picomolar concentrations | 100 pM | activates FAK in intact cells; also recorded: activates FAK within Caco-2 cells | activation at >1000 × × FAK activation | activation at >1000 × × FAK activation | <15 mg/kg/day | B/P ratio <0.15 | Index: ~10^6 | increases its Vmax | activates FAK directly |
| CN(C)C(CNC(=O)Nc1cc(C(F)(F)F)ccc1N1CCOCC1)c1ccncc1 (stereo not drawn) [Compound 39] |  |  |  | ineffective |  |  |  |  |  |  |  |

Entries after “also recorded” stand apart in the source; their conditions may differ.
